Results as given in ChEMBL document CHEMBL1144921, “14-amino, 14-alkylamino, and 14-acylamino analogs of oxymorphindole. Differential effects on opioid receptor binding and functional profiles” (J Med Chem, 2003).

By UniProt entry, the sequences of proteins in these tests, tags left out.
UniProt P41143, whole entry: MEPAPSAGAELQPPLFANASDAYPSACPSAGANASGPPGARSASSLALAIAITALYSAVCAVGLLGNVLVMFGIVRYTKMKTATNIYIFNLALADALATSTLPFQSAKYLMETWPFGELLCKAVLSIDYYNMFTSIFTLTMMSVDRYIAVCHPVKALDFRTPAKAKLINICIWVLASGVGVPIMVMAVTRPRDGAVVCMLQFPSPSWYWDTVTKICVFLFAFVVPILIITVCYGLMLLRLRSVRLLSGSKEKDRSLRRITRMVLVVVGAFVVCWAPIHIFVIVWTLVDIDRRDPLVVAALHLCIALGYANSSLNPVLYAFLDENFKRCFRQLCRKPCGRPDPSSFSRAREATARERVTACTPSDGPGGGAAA

Target: Delta-type opioid receptor (Homo sapiens, UniProt P41143)
Assay: Stimulation of [35S]GTP-gamma-S, binding at human recombinant Opioid receptor delta 1 transfected into CHO cells.
Format: functional, cell-based

In the case of `C[C@@H](NC(=O)[C@@H](N)Cc1ccc(O)cc1)C(=O)NCC(=O)N(C)[C@@H](Cc1ccccc1)C(=O)NCCO` [DAMGO], the pEC50 was < 5.00.

pEC50: −log10 of the molar value.
